Assay results published in patent publication US10729759B2, “Fluorocarbon-linked peptide formulation” (priority 2010, dated 2020).

Key:
[1] = assay type: physicochemical; settings: for Further dilution in Mannitol:Water Solubility: FCP 0.167 mM, 1.33% (w/v) mannitol, cloudiness / particulates; for Dispersion in Water Solubility: FCP 1.333 mM in water, vortexed and sonicated, cloudiness (Clear/Cloudy−/Cloudy/Cloudy+) / particulates
Procedure: The solubility of each FCP in water was assessed. Each FCP was dispersed in 300 μl of water to a final concentration of 1.333 mM and vortexed and sonicated. The typical dispersion conditions were four sequences of three minutes bath sonication interspersed by 30 seconds vortexing. After inspection, the resulting solution was diluted with a mannitol solution (a candidate lyophilisation medium, final concentration of peptide 0.167 mM, 1.33% (w/v) mannitol). Solubility was assessed by visual observation of the cloudiness of the resulting dispersion (scaled: Clear/Cloudy−/Cloudy/Cloudy+) and presence of particulates. […]

[2] = assay type: physicochemical; settings: 1.33% mannitol, 0.22 μm PVDF filter; for YIELD % of each FCP following sterile filtration, MIX 1: MIX 1 dispersed in water; for YIELD % of each FCP following sterile filtration, MIX 2: MIX 2 dispersed in water
[3] = assay type: physicochemical
Procedure: In order to limit the concentration of acetic acid downstream in the formulation process and in the final product, the lowest concentration of acetic acid in water to achieve efficient dispersion and maintain visible solubility was determined for each fluorocarbon-linked peptide. When using mannitol as a cryprotectant, it is important to minimize the acetic acid concentration at the lyophilisation stage in order to achieve a stable and amorphous freeze-dried product. The minimum acetic acid concentration to achieve acceptable dispersibility and solubility of the individual fluorocarbon-linked peptides was determined. The final concentration of fluorocarbon-linked peptide after initial acetic acid dispersion was 2 μmol/ml and after dilution with mannitol, 0.250 μmol/ml.

SMILES | Further dilution in Mannitol:Water Solubility [1] | Dispersion in Water Solubility [1] | YIELD % of each FCP following sterile filtration, MIX 1 [2] | YIELD % of each FCP following sterile filtration, MIX 2 [2] | Percentage acetic acid (% v/v): minimum concentration for acceptable dispersibility and solubility ([3]; FCP 2 μmol/ml after acetic acid dispersion) | Visual appearance after dispersion ([3]; at the listed acetic acid concentration, FCP 2 μmol/ml)
CC[C@H](C)[C@H](NC(=O)CNC(=O)[C@H](CCCCN)NC(=O)[C@@H](NC(=O)[C@H](CC(C)C)NC(=O)[C@@H]1CCCN1C(=O)[C@H](CO)NC(=O)[C@H](CC(C)C)NC(=O)[C@@H](NC(=O)[C@@H]1CCCN1C(=O)[C@H](CCCNC(=N)N)NC(=O)[C@@H](NC(=O)[C@H](CCCCN)NC(=O)[C@H](CC(C)C)NC(=O)[C@H](Cc1c[nH]c2ccccc12)NC(=O)[C@H](CCC(=O)O)NC(=O)[C@H](CCSC)NC(=O)[C@H](CC(C)C)NC(=O)[C@H](C)NC(=O)[C@H](CCC(=O)O)NC(=O)[C@H](CC(C)C)NC(=O)[C@H](CC(=O)O)NC(=O)[C@@H](N)CCCCNC(=O)CCC(F)(F)C(F)(F)C(F)(F)C(F)(F)C(F)(F)C(F)(F)C(F)(F)C(F)(F)F)[C@@H](C)O)[C@@H](C)CC)[C@@H](C)O)C(=O)N[C@@H](CC(C)C)C(=O)NCC(=O)N[C@@H](Cc1ccccc1)C(=O)N[C@H](C(=O)N[C@@H](Cc1ccccc1)C(=O)N[C@H](C(=O)N[C@@H](CC(C)C)C(=O)N[C@H](C(=O)N[C@H](C(=O)N1CCC[C@H]1C(=O)N[C@@H](CO)C(=O)N[C@@H](CCC(=O)O)C(=O)N[C@@H](CCCNC(=N)N)C(N)=O)C(C)C)[C@@H](C)O)[C@@H](C)O)C(C)C [FCP5] | insoluble; also recorded: Cloudy−/Particulates | Cloudy/Particulates | 93.8% | 35.6% | 10 % v/v | Clear
CC[C@H](C)[C@H](NC(=O)[C@H](Cc1ccc(O)cc1)NC(=O)[C@H](CO)NC(=O)[C@H](CCCCN)NC(=O)[C@H](CCCCN)NC(=O)[C@H](CCCCN)NC(=O)[C@@H](N)CCCCNC(=O)CCC(F)(F)C(F)(F)C(F)(F)C(F)(F)C(F)(F)C(F)(F)C(F)(F)C(F)(F)F)C(=O)N[C@@H](CC(N)=O)C(=O)N[C@@H](CCCCN)C(=O)N[C@H](C(=O)NCC(=O)N[C@H](C(=O)N[C@@H](Cc1ccccc1)C(=O)N[C@@H](CCC(=O)O)C(=O)N[C@@H](Cc1ccccc1)C(=O)N[C@H](C(=O)N[C@@H](CO)C(=O)N[C@@H](Cc1ccccc1)C(=O)N[C@@H](Cc1ccccc1)C(=O)N[C@@H](Cc1ccc(O)cc1)C(=O)N[C@@H](CCCNC(=N)N)C(=O)N[C@@H](Cc1ccc(O)cc1)C(=O)NCC(=O)N[C@@H](Cc1ccccc1)C(=O)N[C@H](C(=O)N[C@@H](C)C(=O)N[C@@H](CC(N)=O)C(=O)N[C@@H](Cc1ccccc1)C(=O)N[C@@H](CO)C(=O)N[C@@H](CCSC)C(=O)N[C@@H](CCC(=O)O)C(=O)N[C@@H](CC(C)C)C(=O)N1CCC[C@H]1C(=O)N[C@@H](CO)C(=O)N[C@@H](Cc1ccccc1)C(=O)NCC(N)=O)C(C)C)[C@@H](C)O)[C@@H](C)O)[C@@H](C)O [FCP7] | insoluble; also recorded: Cloudy+/No Particulates | Cloudy+/No Particulates | 31.7% | 63.2% | – | –

Entries after “also recorded” stand apart in the source; their conditions may differ.
